The results in this text go back to patent publication EP0912515B1.

Chains of the proteins cited; added tags and fusions are not shown.
UniProt P08173, whole entry: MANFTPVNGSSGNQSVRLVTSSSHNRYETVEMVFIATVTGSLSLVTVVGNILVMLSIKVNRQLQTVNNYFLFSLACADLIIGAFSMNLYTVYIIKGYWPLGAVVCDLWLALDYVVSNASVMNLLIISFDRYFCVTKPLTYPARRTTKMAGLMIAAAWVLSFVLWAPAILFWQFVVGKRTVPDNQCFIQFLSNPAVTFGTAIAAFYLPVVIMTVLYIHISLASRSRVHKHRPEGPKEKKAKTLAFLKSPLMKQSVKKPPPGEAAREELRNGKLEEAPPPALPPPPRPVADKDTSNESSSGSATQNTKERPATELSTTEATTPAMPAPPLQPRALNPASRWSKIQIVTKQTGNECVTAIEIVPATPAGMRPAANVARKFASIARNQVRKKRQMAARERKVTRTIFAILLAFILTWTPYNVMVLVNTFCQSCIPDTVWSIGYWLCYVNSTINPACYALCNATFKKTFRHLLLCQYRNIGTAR

In the assay the target is cloned human m4 muscarinic receptor (Homo sapiens, UniProt P08173). The assay can be described thus: Muscarinic binding activity, 3H-QNB displacement, m4 receptor. The note with it: Ki for m4 divided by Ki for m2. The protocol:
The compound of interest is tested for its ability to inhibit binding to the cloned human m1, m2 and m4 muscarinic receptor subtypes. The sources of receptors in these studies were membranes from stably transfected CHO cell lines which were expressing each of the receptor subtypes. Following growth, the cells were pelleted and subsequently homogenized using a Polytron in 50 volumes cold 10 mM Na/K phosphate buffer, pH 7.4 (Buffer B). The homgenates were centrifuged at 40,000 x g for 20 minutes at 4°C. The resulting supernatants were discarded and the pellets were resuspended in Buffer B at a final concentration of 20 mg wet tissue/ml. These membranes were stored at -80°C until utilized in the binding assays described below.
Binding to the cloned human muscarinic receptors was performed using ^3H-quinuclidinyl benzilate (QNB) (Watson et al., 1986). Briefly, membranes (approximately 8, 20, and 14 µg of protein assay for the m1, m2, and m4 containing membranes, respectively) were incubated with ^3H-QNB (final concentration of 100-200 pM) and increasing concentrations of unlabeled drug in a final volume of 2 ml at 25°C for 90 minutes. Non-specific binding was assayed in the presence of 1 µM atropine. The incubations were terminated by vacuum filtration over GF/B glass fiber filters using a Skatron filtration apparatus and the filters were washed with cold 10mM Na/K phosphate butter, pH 7.4. Scintillation cocktail was added to the filters and the vials were incubated overnight. The bound radioligand was quantified in a liquid scintillation counter (50% efficiency). The resulting data were analyzed for IC50 values (i.e. the concentration of compound required to inhibit binding by 50%) using the EBDA computer program (McPherson, 1985).
To determine the degree of selectivity of a compound for binding the m2 receptor, the Ki value for m1 receptors was divided by the Ki value for m2 receptors. A higher ratio indicates a greater selectivity for binding the m2 muscarinic receptor. A similar calculation is made to determine the m4 selectivity.

As for `CC(=O)Nc1ccc([S+]([O-])c2ccc(N(C#N)C3CCN(C4CCCCC4)CC3)cc2)cc1` (stereo not drawn), the m4 Selectivity Ratio (Ki,m4/Ki,m2) was determined as 3.
Then `COc1ccc([S+]([O-])c2ccc(N(C#N)C3CCN(C4CCCCC4)CC3)cc2)cc1` (stereo not drawn), with 4.4; and `N#CN(c1ccc(S(=O)(=O)c2ccc3c(c2)OCO3)cc1)C1CCN(C2CCCCC2)CC1`, with 3.6; and `N#CN(c1ccc(S(=O)(=O)C2CCCCC2)cc1)C1CCN(C2CCCCC2)CC1`, with 1.4.
With `COc1ccc(S(=O)(=O)c2ccc(N(C)C3CCN(C4CCCCC4)CC3)cc2)cc1`, the m4 Selectivity Ratio (Ki,m4/Ki,m2) amounted to 3.3.
Then `C=CCN(c1ccc(S(=O)(=O)c2ccc(OC)cc2)cc1)C1CCN(C2CCCCC2)CC1`, with 2.7.
